Sampled rows, rich in hits. Any-hit rate of the full collection: about 16%.
DT40 TDP1 no CPT – qHTS for Inhibitors of human tyrosyl-DNA phosphodiesterase 1 (TDP1): qHTS in cells in absence of CPT; 420,000 compounds, 15% hits; DT40 Tdp1-/- hTDP1 cells, no CPT, ATP luminescence, 48 h; AID 686978, 2013; Potency, µM (top dose mostly 46.2 µM), hits mostly inhibitors; also: nearly all actives have a fitted effect of over 55% in size
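Compound effects on proliferation are scored in DT40 Tdp1-/-;hTDP1 cells in the absence of CPT. ATP levels (CellTiter-Glo luminescence) are recorded after a ≥48 hr, 37 °C incubation.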
TDP1 block – inhibitors of human tyrosyl-DNA phosphodiesterase TDP1 | 350,000 compounds, 0.28% hits | recombinant TDP1, AlphaScreen DNA substrate cleavage | AID 485290 | Potency, µM (titrated, usually from 130 µM), most hits filed as inhibitors | Q9NUW8; also: nearly all actives have a fitted effect of over 40% in size
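Enzyme-compound mixtures sat 15 min at room temperature, followed by a 5 min reaction with 15 nM final substrate and 10 min with AlphaScreen beads. Recombinant human Tdp1 was used at 1 nM final.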
TDP1 cell CPT – growth inhibition of DT40 Tdp1-/-;hTDP1 cells with camptothecin (screen for TDP1 inhibitors); chicken DT40 Tdp1-/-;hTDP1 cells + 20 nM CPT, ATP luminescence, 48 h; 420,000 compounds, 12% hits; Potency, µM (titrated, usually from 46.2 µM), hits mostly inhibitors; also: nearly all actives have a fitted effect of over 55% in size
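Chicken DT40 Tdp1-/- cells stably complemented with human TDP1 were seeded at 400 cells/well in medium containing 20 nM camptothecin, exposed to pin-transferred compounds, and grown at 37 °C for at least 48 hr. Viability was read as ATP luminescence.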
miR-21 reporter – miR-21 reporter, rising signal | HeLa miR-21 FLuc reporter, luciferase, 48 h | Potency, µM (top dose mostly 38.3 µM) | 340,000 tested, under 10 active | AID 2288; active = well fitted rising curve with a large enough effect; inconclusive = small, poorly fitted or top-dose-only effect; inactive = no such curve, though single readings can be large or run the other way;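 further: miR-21 action dims this reporter so a rising signal means less miR-21 action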
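HeLa cells stably expressing CMV-driven firefly luciferase with a downstream miR-21 binding sequence, endogenously expressing miR-21, were treated with titrations (up to about 40uM final) for 48 hours at 37 degree Celsius. Luciferase luminescence was read after lysis.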
uPA surface inh – cell surface uPA generation inhibition; cell surface uPA generation assay, qHTS; Potency, µM (top dose mostly 38.3 µM), hits mostly inhibitors; 330,000 compounds, 0.31% hits; AID 540303; active = well fitted inhibition curve with a large enough effect; inconclusive = small, poorly fitted or top-dose-only effect; inactive = no such curve, though single readings can be large or run the other way; tested in mouse RAW 264.7 cells; also: nearly all actives have a fitted effect of over 55% in size
Of the large screens only hits and unclear results are named; the others gave an inactive call; ! = repeats disagree. Unless noted, calls follow the shape of the dose curve; as a rule, active = well fitted curve in the direction sought with a large enough effect; inconclusive = small, poorly fitted or top-dose-only effect, or another doubt; inactive = no such curve, though single readings can be large; an effect the other way counts as inactive or inconclusive.

FC(F)(F)c1cc(Cl)c2nc(-c3ccc(Cl)cc3)c(Cc3ccccc3)n2c1	none (no result: TDP1 block, miR-21 reporter, uPA surface inh)
Fc1cccc(Cc2c(-c3cccc(Cl)c3)nc3c4ccccc4ccn23)c1	DT40 TDP1 no CPT 18µM, TDP1 cell CPT 23µM (no result: TDP1 block, miR-21 reporter, uPA surface inh)
Clc1cccc(Cc2c(-c3ccccc3)nc3c4ccccc4ccn23)c1	DT40 TDP1 no CPT 13µM, TDP1 cell CPT inconclusive (no result: TDP1 block, miR-21 reporter, uPA surface inh)
Fc1cccc(Cc2c(-c3ccco3)nc3ccc(Br)cn23)c1	DT40 TDP1 no CPT 16µM, TDP1 cell CPT 16µM (no result: TDP1 block, miR-21 reporter, uPA surface inh)
CCC(C)(C)C1CCc2nc3ccccc3c(C(=O)OC(C)C(=O)Nc3c(C)n(C)n(-c4ccccc4)c3=O)c2C1 (stereo not drawn)	DT40 TDP1 no CPT inconclusive, TDP1 cell CPT 23µM
Cc1c(NC(=O)C(C)OC(=O)c2cccs2)c(=O)n(-c2ccccc2)n1C (stereo not drawn)	none
CCCc1nc2ccccc2c(C(=O)OCC(=O)Nc2c(C)n(C)n(-c3ccccc3)c2=O)c1CC	DT40 TDP1 no CPT 16µM, TDP1 cell CPT inconclusive
CCc1ccc(C(=O)OCC(=O)Nc2c(C)n(C)n(-c3ccccc3)c2=O)cc1	none (no result: TDP1 block, miR-21 reporter, uPA surface inh)
CC(C)CN(C(=O)CN1CCc2ccccc21)c1c(N)n(CC(C)C)c(=O)[nH]c1=O	none
Cc1ccc(CC2CC(=O)N(c3nc4ccccc4n3C)C2=O)cc1 (stereo not drawn)	none
CCc1ccc(-n2c(SCc3c(C)noc3C)nnc2-c2ccncc2)cc1	DT40 TDP1 no CPT inconclusive, TDP1 cell CPT 21µM
COc1ccc(-n2c(SCc3nc(-c4ccc(C)cc4)no3)nnc2-c2ccncc2)cc1	none (no result: uPA surface inh)
COc1ccc(-c2noc(Cc3ccc(Cl)cc3)n2)cc1OC	DT40 TDP1 no CPT inconclusive, TDP1 cell CPT 10µM
COc1ccc(-c2noc(CSc3nnc(-c4ccncc4)n3-c3ccccc3)n2)cc1	DT40 TDP1 no CPT 23µM, TDP1 cell CPT 16µM (no result: uPA surface inh)
COc1ccc(Cc2nc(-c3ccc(Cl)cc3)no2)cc1	none
COc1ccc(-c2noc(CSc3nnc(-c4ccccc4)n3C)n2)cc1	DT40 TDP1 no CPT 15µM!, TDP1 cell CPT 23µM! (no result: uPA surface inh)
COc1ccc(CNC(=O)c2cnc(N3CCOCC3)c3ccccc23)cc1	DT40 TDP1 no CPT inconclusive, TDP1 cell CPT inconclusive (no result: uPA surface inh)
Clc1ccc(-c2nnc(CSc3nnc(-c4cccs4)n3Cc3ccccc3)o2)cc1	DT40 TDP1 no CPT 2.9µM, TDP1 cell CPT 6.5µM, uPA surface inh inconclusive
COc1ccc(-c2noc(CSc3nnc(Cc4ccccc4)n3-c3ccc(F)cc3)n2)cc1	DT40 TDP1 no CPT 16µM, TDP1 cell CPT inconclusive (no result: uPA surface inh)
COc1ccc(-c2noc(CSCC(=O)Nc3ccc(C)cc3Br)n2)cc1OC	none (no result: uPA surface inh)
COc1cc(Cl)c(C)cc1NC(=O)CSCc1nc(-c2ccc(OC)c(OC)c2)no1	DT40 TDP1 no CPT 16µM, TDP1 cell CPT 21µM (no result: uPA surface inh)
COc1ccc(-c2nnc(SCc3nnc(-c4ccc(Cl)cc4)o3)n2-c2ccccc2)cc1	DT40 TDP1 no CPT 16µM, TDP1 cell CPT 16µM
CCC1CCCCN1S(=O)(=O)c1cc2c(cc1C)NC(=O)CO2 (stereo not drawn)	DT40 TDP1 no CPT inconclusive, TDP1 cell CPT inconclusive (no result: uPA surface inh)
CCOc1ccccc1NC(=O)Nc1cc(S(=O)(=O)N(C)C)ccc1C	none
COc1ccc(-c2noc(CSc3nnc(-c4ccc(Cl)cc4)n3C)n2)cc1OC	DT40 TDP1 no CPT 16µM, TDP1 cell CPT inconclusive (no result: uPA surface inh)
O=[N+]([O-])c1cccc(CSc2nnc(Cc3ccccc3)n2-c2ccc(F)cc2)c1	DT40 TDP1 no CPT inconclusive, TDP1 cell CPT 18µM
CCOc1ccccc1-c1noc(CSc2nnc(-c3ccccc3)n2-c2ccc(F)cc2)n1	DT40 TDP1 no CPT 13µM, TDP1 cell CPT 12µM, miR-21 reporter inconclusive (no result: uPA surface inh)
COc1ccc(-c2noc(CSc3nnc(-c4ccncc4)n3-c3ccc(C)cc3)n2)cc1OC	TDP1 cell CPT 16µM (no result: uPA surface inh)
O=C(O)CSc1nnc(Cc2ccccc2)n1-c1ccccc1	none
COc1ccc(-c2noc(CSc3nnc(-c4ccncc4)n3-c3ccc(F)cc3)n2)cc1OC	DT40 TDP1 no CPT inconclusive, TDP1 cell CPT inconclusive
O=C1COc2ccc(-c3n[nH]c(=O)c4ccccc34)cc2N1	DT40 TDP1 no CPT inconclusive
CN(CC1CCCN(CCc2cccc(C(F)(F)F)c2)C1)C(=O)c1ccco1 (stereo not drawn)	none
CC(C)CC(=O)NCc1nc2cccnc2n1Cc1ccccc1	none (no result: uPA surface inh)

Assay outcomes (PubChem BioAssay)
